Reference: US9579383B2, “Formulations for enhanced bioavailability of orally administered polar agents” (ALA WAI PHARMA, INC., priority 2007, dated 2017)

Tested on: Caco-2 cell monolayers
Assay: Caco-2 cell permeability assay of peramivir with permeability enhancers
Conditions: enhancer concentration 1% in HBSS; peramivir 15 μg/mL

d-alpha-tocopheryl polyethylene glycol 1000 succinate [TPGS]
Fold-Enhancement Over Control: 28.9 fold
ng peramivir transported/min: 9.52 ng/min
